Biological target: human PHGDH (wild type) (Homo sapiens, UniProt O43175)
Assay: PHGDH isolated enzyme inhibition assay (NADH fluorescence), wild type
Conditions: SAR statement on Table 1

Amino acid sequences for entries named in this document (tags omitted).
UniProt O43175, whole entry: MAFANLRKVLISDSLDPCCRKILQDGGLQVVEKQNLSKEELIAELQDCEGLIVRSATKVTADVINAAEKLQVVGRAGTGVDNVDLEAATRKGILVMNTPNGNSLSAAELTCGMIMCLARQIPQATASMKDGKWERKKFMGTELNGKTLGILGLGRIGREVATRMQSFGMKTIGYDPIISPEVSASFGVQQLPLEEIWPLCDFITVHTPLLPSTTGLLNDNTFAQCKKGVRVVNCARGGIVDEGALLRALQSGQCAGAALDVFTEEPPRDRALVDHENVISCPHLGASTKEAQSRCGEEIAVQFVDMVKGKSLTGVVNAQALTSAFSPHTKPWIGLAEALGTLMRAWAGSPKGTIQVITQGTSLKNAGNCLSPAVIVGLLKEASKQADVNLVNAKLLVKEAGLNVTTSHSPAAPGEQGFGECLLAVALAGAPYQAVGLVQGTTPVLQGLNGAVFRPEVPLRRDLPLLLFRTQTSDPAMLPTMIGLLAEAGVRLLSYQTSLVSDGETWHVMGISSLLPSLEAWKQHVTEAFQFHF

Compound: CCN(CC)C(=S)SCSC(=S)N(CC)CC
- PHGDH inhibition compared to the parent compound DSF: only weakly or inactive

From publication PMC6426982, “Anti-alcohol abuse drug disulfiram inhibits human PHGDH via disruption of its active tetrameric form through a specific cysteine oxidation” (Scientific Reports, 2019)
